Biological target: mouse CXCR4 (mouse) (UniProt P70658)
Assay: FMAT, hybridoma supernatant on HEK293T cells transiently overexpressing full-length mouse CXCR4

Chains of the proteins cited; added tags and fusions are not shown.
UniProt P70658, whole entry: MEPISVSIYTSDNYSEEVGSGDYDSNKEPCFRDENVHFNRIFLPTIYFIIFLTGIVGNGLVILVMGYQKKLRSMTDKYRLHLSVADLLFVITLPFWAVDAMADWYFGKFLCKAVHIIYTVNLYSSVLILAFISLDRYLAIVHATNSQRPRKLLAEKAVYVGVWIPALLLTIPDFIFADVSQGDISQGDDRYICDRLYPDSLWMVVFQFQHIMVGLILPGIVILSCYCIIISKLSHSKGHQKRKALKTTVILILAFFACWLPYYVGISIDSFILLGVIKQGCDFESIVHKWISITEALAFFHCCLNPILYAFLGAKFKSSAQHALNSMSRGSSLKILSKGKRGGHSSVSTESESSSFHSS

Count: 86
FL1: 1390
FL1 x count: 119000
B1: 5E1 (antibody, V domains shown)
VH: EVQLLESGGGLVQPGGSLRLSCAASGFTFSSFAMNWVRQAPGKGLEWVSAISGSGGNIYYADSVRGRFTISRDNSKNTLYLQMNSLRAEDTAVYYCAKVDRNLGYYHGMDVWGQGTTVTVSS
VL: DIVMTQSPLSLPVTPGEPASISCRSSQSLLHSNGYNYLDWYLQKPGQSPQLLIYLGSNRASGVPDRFSGSGSGSDFTLKISRVEAEDVGVYYCMQALQFTFGPGTKVDIK

Reference: patent US20140314784A1
